# In patent EP1202967B1, “SULFURIC ACID MONO-[3-({1-[2-(4-FLUORO-PHENYL)-ETHYL]-PIPERIDIN-4-YL}-HYDROXY-METHYL)-2-METHOXY-PHENYL]ESTER” (AVENTIS PHARMACEUTICALS INC., priority 1999, dated 2001):
# The chains behind the UniProt entries cited, without tags or fusion partners. Residues count along the entry.
# UniProt P28335, 33-458: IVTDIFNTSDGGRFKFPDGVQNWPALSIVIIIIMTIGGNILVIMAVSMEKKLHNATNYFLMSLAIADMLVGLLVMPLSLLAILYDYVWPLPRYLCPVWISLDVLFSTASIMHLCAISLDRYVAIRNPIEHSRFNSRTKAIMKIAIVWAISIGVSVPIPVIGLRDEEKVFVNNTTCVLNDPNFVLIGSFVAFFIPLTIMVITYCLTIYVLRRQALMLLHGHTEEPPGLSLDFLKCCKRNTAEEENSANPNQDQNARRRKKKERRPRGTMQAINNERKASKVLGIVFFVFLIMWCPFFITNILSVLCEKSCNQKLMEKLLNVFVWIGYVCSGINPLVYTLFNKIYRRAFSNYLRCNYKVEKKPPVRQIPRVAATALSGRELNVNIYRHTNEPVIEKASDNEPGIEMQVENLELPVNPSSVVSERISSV
# Target: T1, human 5-HT2C (Homo sapiens, UniProt P28335)
# T1 construct: expressed in transfected cells; membranes prepared
# Experiment: Receptor binding assay, inhibition of [3H]-ligand binding to human 5-HT2C
# Conditions: radioligand Kd at human 5-HT2C, CHO; saturation (Scatchard) and kinetic analysis
# Description: Cells stably expressing the human homologs of the receptors (dopamine D2L, serotonin 5HT2A and 5HT2C, α1A adrenergic; cloned and expressed at Hoechst Marion Roussel; Grandy et al., 1989: Monsma et al., 1993; Schwinn et al., 1995) were grown: cell membranes were prepared, and kept frozen until used (Kongsamut et al., 1996). The relevance of these binding sites has been extensively discussed in the literature (see for example: Carlsson & Carlsson. 1990; Creese et al., 1976; Gorman & Vargas, 1995; Meltzer et al., 1989). All binding parameters were optimized at Hoechst Marion Roussel; ligand KdS were determined using both saturation analysis (Scatchard) as well as kinetic analysis (association and dissociation rates). Each batch of membrane was validated by checking the ligand Kd, and rank order of potency of selected standard compounds. […]
# Membranes were rapidly thawed and diluted to an appropriate concentration (between 20 - 150 µg protein/assay point depending on receptor expression level) in Tris buffer and homogenized. […] Microscint scintillation cocktail (40 µl) were added and the filter plates were counted in a Packard Top Count scintillation counter. Data were analyzed to determine Ki's for compounds of interest (Prusoff & Cheng, […]).Table: Receptor Binding Parameters. […]
structure (smiles),measurement,value
"CN1C[C@@H](NS(=O)(=O)N(C)C)C[C@@H]2c3cccc4c3c(cn4C)C[C@H]21 [[^3H]mesulergine, reference compound]",Kd,1.9 nM
